# Results as given in US6645774B1 (Synaptic Pharmaceutical Corporation, priority 1994, dated 2003).
# Protein sequences, listed by entry. Tags and fused reporters are not part of them.
# UniProt P35367, whole entry: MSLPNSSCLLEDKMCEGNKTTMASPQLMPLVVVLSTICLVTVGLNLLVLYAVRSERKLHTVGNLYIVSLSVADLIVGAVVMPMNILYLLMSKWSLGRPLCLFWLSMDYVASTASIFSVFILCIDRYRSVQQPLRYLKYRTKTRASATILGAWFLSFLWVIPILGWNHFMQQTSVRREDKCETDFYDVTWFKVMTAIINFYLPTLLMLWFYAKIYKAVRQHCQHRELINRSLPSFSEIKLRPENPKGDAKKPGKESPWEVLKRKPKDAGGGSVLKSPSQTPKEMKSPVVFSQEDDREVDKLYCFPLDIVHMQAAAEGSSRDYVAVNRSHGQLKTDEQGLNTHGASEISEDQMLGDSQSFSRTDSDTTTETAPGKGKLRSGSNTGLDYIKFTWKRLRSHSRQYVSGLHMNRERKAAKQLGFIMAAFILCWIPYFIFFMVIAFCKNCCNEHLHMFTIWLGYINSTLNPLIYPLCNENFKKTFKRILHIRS
# UniProt P25021, whole entry: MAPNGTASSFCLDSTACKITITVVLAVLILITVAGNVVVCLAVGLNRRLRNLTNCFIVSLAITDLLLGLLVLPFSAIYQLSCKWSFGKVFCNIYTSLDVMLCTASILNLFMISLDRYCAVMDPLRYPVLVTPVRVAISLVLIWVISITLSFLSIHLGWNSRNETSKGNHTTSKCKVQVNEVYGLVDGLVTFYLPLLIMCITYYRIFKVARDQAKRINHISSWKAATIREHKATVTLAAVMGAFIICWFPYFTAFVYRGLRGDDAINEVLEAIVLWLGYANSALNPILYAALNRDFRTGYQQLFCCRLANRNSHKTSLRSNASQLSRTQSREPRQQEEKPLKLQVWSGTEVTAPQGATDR
# Assays:
# [1] = biological target: human histamine H1 receptor (Homo sapiens, UniProt P35367); assay: biochemical
# [2] = biological target: human histamine H2 receptor (Homo sapiens, UniProt P25021); assay: biochemical
SMILES,Ki [1],Ki [2]
"Cl.c1ccc(Nc2nc(Nc3ccccc3)c3ccccc3n2)cc1 [Compound 1, 2,4-Diphenylamino-quinazoline Hydrochloride]",2570 nM,479 nM
"Cl.Nc1nc(NC[C@H]2CC[C@H](CNS(=O)(=O)c3cccc4ccccc34)CC2)nc2ccccc12 [Compound 5, trans-Naphthalene-1-sulfonic Acid {4-[(4-amino-quinazolin-2-ylamino)-methyl]-cyclohexylmethyl}-amide Hydrochloride]",224 nM,209 nM
